Assay results from patent US20090098130A1, “GLUCAGON-LIKE PROTEIN-1 RECEPTOR (GLP-1R) AGONIST COMPOUNDS” (priority 2007, published 2009).

Tested on: pancreatic β cells
Experiment: glucose-stimulated insulin secretion (GSIS) assay
Type: cell-based
Conditions: GA targeting agent-linker conjugate; GSIS assay in vitro
Protocol: Briefly, glucose and GA targeting peptide was added at various concentrations to pancreatic β cell cultures, and insulin secretion was detected by measuring insulin levels over time. EC50 was calculated for each peptide.
The ability of these GA targeting agent-linker conjugates to stimulate […] secretion in vitro was measured using the GSIS assay described in Example 27. […] Each of these peptides contained a side-chain modified Lys residue according to the scheme illustrated in FIG. 30 at a different position.

Structure (SMILES): CC[C@H](C)[C@H](NC(=O)[C@H](Cc1ccccc1)NC(=O)[C@H](CCC(=O)O)NC(=O)[C@H](CCCCN)NC(=O)[C@@H](NC(=O)[C@H](C)NC(=O)[C@H](CCC(N)=O)NC(=O)[C@H](CCC(=O)O)NC(=O)[C@H](CCC(=O)O)NC(=O)[C@H](CC(C)C)NC(=O)[C@H](Cc1ccc(O)cc1)NC(=O)[C@H](CO)NC(=O)[C@H](CO)NC(=O)[C@@H](NC(=O)[C@H](CC(=O)O)NC(=O)[C@H](CO)NC(=O)[C@@H](NC(=O)[C@H](Cc1ccccc1)NC(=O)[C@@H](NC(=O)CNC(=O)[C@H](CCC(=O)O)NC(=O)C(C)(C)NC(=O)[C@@H](N)Cc1c[nH]cn1)[C@@H](C)O)[C@@H](C)O)C(C)C)C(C)C)C(=O)N[C@@H](C)C(=O)N[C@@H](Cc1c[nH]c2ccccc12)C(=O)N[C@@H](CC(C)C)C(=O)N[C@H](C(=O)N[C@@H](CCCCNC(=O)c1ccccc1)C(=O)NC(C)(C)C(=O)N[C@@H](CCCNC(=N)N)C(N)=O)[C@@H](C)CC
- EC50: < 10 µM
